Consider 1 substance from patent US20110110932A1, “COMBINATION TREATMENT FOR OCULAR DISEASES” (OPHTHOTECH CORP., priority 2009, published 2011).

Sequences of proteins named here, by UniProt entry; tags and fusion partners are left off. Residues count along the entry.
UniProt P08648, 895-1049 limits assumed: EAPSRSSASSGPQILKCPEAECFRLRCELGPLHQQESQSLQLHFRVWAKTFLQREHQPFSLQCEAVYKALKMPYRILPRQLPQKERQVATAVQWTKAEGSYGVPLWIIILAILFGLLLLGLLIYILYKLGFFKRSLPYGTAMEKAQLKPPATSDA
UniProt P08648, 42-894 limits assumed: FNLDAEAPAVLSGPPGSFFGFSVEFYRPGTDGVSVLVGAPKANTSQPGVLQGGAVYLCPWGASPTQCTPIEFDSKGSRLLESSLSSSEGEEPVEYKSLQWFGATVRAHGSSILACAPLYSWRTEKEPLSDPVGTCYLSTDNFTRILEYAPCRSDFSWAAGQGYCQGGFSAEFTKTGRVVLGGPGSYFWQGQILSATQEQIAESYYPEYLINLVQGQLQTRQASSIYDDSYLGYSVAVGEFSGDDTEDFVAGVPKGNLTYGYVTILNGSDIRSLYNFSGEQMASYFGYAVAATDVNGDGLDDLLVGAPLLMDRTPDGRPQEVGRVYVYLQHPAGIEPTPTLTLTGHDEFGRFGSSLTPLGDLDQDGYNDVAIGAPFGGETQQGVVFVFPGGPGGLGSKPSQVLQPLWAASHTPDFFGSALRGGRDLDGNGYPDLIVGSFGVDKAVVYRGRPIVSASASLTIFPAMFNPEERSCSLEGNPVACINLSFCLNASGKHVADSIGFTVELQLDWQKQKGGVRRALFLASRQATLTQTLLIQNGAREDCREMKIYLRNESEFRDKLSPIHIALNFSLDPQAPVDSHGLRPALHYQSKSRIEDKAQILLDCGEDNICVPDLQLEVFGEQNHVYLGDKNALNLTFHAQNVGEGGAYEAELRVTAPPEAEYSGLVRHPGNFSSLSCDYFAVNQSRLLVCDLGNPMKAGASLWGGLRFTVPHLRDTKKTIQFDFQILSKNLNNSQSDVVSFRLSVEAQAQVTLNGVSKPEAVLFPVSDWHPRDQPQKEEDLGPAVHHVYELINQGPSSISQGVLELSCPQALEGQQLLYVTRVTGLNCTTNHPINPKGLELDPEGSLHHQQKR

The subject of series [1] is choroidal neovascularization (CNV). Particulars: rabbits, CNV induced by VEGF/bFGF pellets; cited from earlier work.
The next series has as its system endothelial cells. Particulars: cited from earlier work.
The subject of series [2] is human umbilical vein endothelial cell (HUVEC). Particulars: in vitro; cited from earlier work.
The next series concerns subjects with wet AMD. Put plainly: Dose-escalating multicenter clinical study of intravitreal volociximab in combination with ranibizumab. Format: in vivo, human. Particulars: initial ten subjects, two doses in combination with ranibizumab. The source says: In one embodiment, the signs and symptoms associated with an ocular disorder (e.g., macular degeneration) may be monitored by assessment via Optical Coherence Tomography (OCT). […] OCT relies upon differential reflections of light to produce 2-dimensional cross-sections of the retina. OCT images are obtained rapidly and have a spatial resolution of approximately 8 mcm. OCT is especially useful for calculating retinal thickness. In another embodiment, the signs and symptoms associated with an ocular disorder (e.g., macular degeneration) may be monitored by assessment via a visual acuity (VA) test. The visual acuity test is used to determine the smallest letters a person can read on a standardized chart or card held 14-20 feet away. This test is done on each eye, one at a time. If necessary, it is then repeated while the subject wears glasses or contacts.
Bulk 25 mg/mL volociximab (also known as M200; PDL BioPharma) is aseptically filled into clinical use vials. A 10 mg/mL solution is prepared by dilution of the 25 mg/mL bulk using the same formulation solution. Stock ranibizumab (Genentech) at 10 mg/mL is aseptically filled into clinical use vials.
This is a dose-escalating, uncontrolled, multiple-dose multicenter study including subfoveal lesions of any subtype secondary to AMD. […]

Another series addresses α5β1 integrin (Homo sapiens, UniProt P05556+P08648). Particulars: cited from earlier work.
For series [3], the system named is choroidal neovascularization (CNV). Particulars: cynomolgus monkeys, laser induced CNV; cited from earlier work.
Series [4] concerns human umbilical vein endothelial cell (HUVEC). Particulars: in vitro; cited from earlier work. The source holds these as a separate data set.

Read-outs that look alike come from different tables or passages of the source.

As to “volociximab: high affinity chimeric monoclonal antibody which inhibits the binding between α5β1 integrin and fibronectin (SEQ ID NO: 3, 4)”, the anti-angiogenic activity result in series [1] and in series [3] was “significant anti-angiogenic activity” throughout. The figures for the apoptosis induction result with endothelial cells (actively proliferating endothelial cells) and with endothelial cells (resting endothelial cells) were “induces apoptosis” and “not in resting endothelial cells”, respectively. The HUVEC proliferation result in series [2] was “inhibition”. For the same substance, the safety profile entry with subjects with wet AMD was “favorable safety profile”. Further, in the series with α5β1 integrin, the “binding between α5β1 integrin and fibronectin” value is “inhibits the binding”. Further, the HUVEC tube formation result in series [4] is reported as “inhibition”.
